The values below come from article PMC7290078, “Agonist bias and agonist‐dependent antagonism at corticotrophin releasing factor receptors” (Pharmacology Research & Perspectives, 2020).

Common to all, as to assay type: cell-based
The target in assay [1] is T1, CRF1 receptor (hCRF1α) (Homo sapiens, UniProt P34998).
T1 construct: host or cells: Cos7 cells, transient transfection (PEI), pcDNA3.0/3.1 vector
T1 sequence (P34998 24-415): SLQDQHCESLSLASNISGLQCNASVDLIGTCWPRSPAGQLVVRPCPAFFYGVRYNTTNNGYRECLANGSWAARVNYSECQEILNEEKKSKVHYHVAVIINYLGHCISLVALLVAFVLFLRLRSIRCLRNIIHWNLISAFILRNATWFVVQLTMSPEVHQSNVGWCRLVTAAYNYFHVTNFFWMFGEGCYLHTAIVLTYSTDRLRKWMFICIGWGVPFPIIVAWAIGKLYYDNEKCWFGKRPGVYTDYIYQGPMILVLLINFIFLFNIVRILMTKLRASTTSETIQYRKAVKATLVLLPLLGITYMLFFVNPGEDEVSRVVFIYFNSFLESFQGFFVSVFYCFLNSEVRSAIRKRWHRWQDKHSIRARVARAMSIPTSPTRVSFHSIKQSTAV
The assay is described as follows: cAMP accumulation (LANCE) in Cos7 cells transfected with hCRF1α, agonist stimulation. The conditions noted are these: 15 min at 37°C, 1 mmol/L IBMX, 1 pmol/L to 1 µmol/L agonist, mean ± SEM, n = 5. From the text:
(§1) Plasmids containing hCRF1α and hCRF2α (GenBank accession numbers AY457172 and AY449734) were obtained from the cDNA Resource Centre (Bloomsburg University) and are referred to as CRF1 and CRF2 in this manuscript. Hemagglutinin (HA) epitope‐tagged human Calcitonin (CT) receptor (CT(a) splice variant) and myc‐tagged human RAMP1 were used as described previously. ^27 HA‐tagged human calcitonin receptor‐like receptor (CLR), N‐terminal FLAG‐tagged human RAMP3 and N‐terminal myc‐tagged human RAMP3 were a gift from Professor David Poyner (Aston University) and Professor Patrick Sexton (Monash University), respectively. […]
(§2) Cos7, HEK‐293S, and HEK‐293T cells were cultured as described previously. ^28 , ^29 Cos7 cells were originally supplied by the ATCC to Associate Professor Nigel Birch (University of Auckland). […] For transfection, cells were counted (Countess CounterTM; Life Technologies) and plated at a density of 20 000 cells per well in 96‐well plates. […]
(§3) cAMP accumulation in Cos7 cells transfected with hCRF1α or hCRF2α receptors was measured using the LANCE cAMP detection assay kit (PerkinElmer Life and Analytical Sciences) as described previously. ^30 Briefly, culture media was removed and replaced with DMEM containing 0.1% bovine albumin serum (BSA) and 1 mmol/L 3‐isobutyl‐1‐methylxanthine (IBMX) for 30 minutes at 37°C. […]
(In general: Changes in cAMP serve as a functional read-out for many G protein-coupled receptors.)

The target of assay [2] is T1, CRF1 receptor (hCRF1α). The assay is described as follows: ERK1/2 phosphorylation (AlphaLISA Surefire Ultra) in Cos7 cells transfected with hCRF1α. The conditions noted are these: pERK1/2, hCRF1α, 7 min at 37°C, 1 pmol/L to 1 µmol/L agonist, mean ± SEM, n = 5.
Text: as §1, with “respectively. N‐terminal FLAG‐tagged human RAMP2 was used as described previously. ^28 All receptors and RAMPs were cloned in pcDNA3.0 or pcDNA3.1 plasmid vectors.” for “respectively.”
as §2
(§4) The AlphaLISA Surefire Ultra extracellular signal‐regulated kinase 1/2 (ERK1/2) phosphorylation (pERK1/2) assay kit (PerkinElmer Life and Analytical Sciences) was used to measure pERK1/2 in cell lysates after agonist stimulation. […] Samples were read using an Envision plate reader (PerkinElmer). […]

In assay [3] the target is T1, CRF1 receptor (hCRF1α). The assay is described as follows: IP1 accumulation (IP-one Gq) in Cos7 cells transfected with hCRF1α, agonist stimulation. To be noted: 90 min at 37°C, 50 mmol/L LiCl, 1 pmol/L to 10 µmol/L agonist, mean ± SEM, n = 5.
Text: as §1, §2
(§5) The IP‐one Gq assay kit (Cisbio) was used to quantify accumulated myo‐inositol‐1‐phosphate (IP1), a by‐product of IP3 produced after receptor‐mediated Gαq activation in Cos7 and HEK‐293S cells. […] Fifteen microliters of sample was then transferred to a 384‐well optiplate and read by an Envision plate reader (PerkinElmer). IP1 concentrations were calculated from a standard curve generated in duplicate. […]

In assay [4] the target is T2, CRF2 receptor (hCRF2α) (Homo sapiens, UniProt Q13324).
T2 construct: host or cells: Cos7 cells, transient transfection (PEI), pcDNA3.0/3.1 vector
T2 sequence (Q13324 1-411): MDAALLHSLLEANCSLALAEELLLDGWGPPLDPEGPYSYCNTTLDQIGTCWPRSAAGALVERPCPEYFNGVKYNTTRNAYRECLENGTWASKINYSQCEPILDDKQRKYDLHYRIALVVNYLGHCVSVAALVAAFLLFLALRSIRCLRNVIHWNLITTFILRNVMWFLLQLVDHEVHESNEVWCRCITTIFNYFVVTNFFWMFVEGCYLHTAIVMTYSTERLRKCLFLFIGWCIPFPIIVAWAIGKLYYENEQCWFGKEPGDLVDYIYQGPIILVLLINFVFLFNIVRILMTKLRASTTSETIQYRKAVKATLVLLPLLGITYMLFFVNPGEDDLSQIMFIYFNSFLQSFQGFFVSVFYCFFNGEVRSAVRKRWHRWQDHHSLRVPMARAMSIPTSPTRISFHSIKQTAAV
The assay is described as follows: cAMP accumulation (LANCE) in Cos7 cells transfected with hCRF2α, agonist stimulation. The conditions noted are these: 15 min at 37°C, 1 mmol/L IBMX, 1 pmol/L to 1 µmol/L agonist, mean ± SEM, n = 5.
Text: as §1, §2, §3

In assay [5] the target is T2, CRF2 receptor (hCRF2α). The assay is described as follows: ERK1/2 phosphorylation (AlphaLISA Surefire Ultra) in Cos7 cells transfected with hCRF2α. The conditions noted are these: pERK1/2, hCRF2α, 7 min at 37°C, 1 pmol/L to 1 µmol/L agonist, mean ± SEM, n = 5.
Text: as §1, with “respectively. N‐terminal FLAG‐tagged human RAMP2 was used as described previously. ^28 All receptors and RAMPs were cloned in pcDNA3.0 or pcDNA3.1 plasmid vectors.” for “respectively.”
as §2, §4
In general terms: Alpha assays give light when donor and acceptor beads are brought close together.

Assay [6] concerns the target T2, CRF2 receptor (hCRF2α). Kind of assay: IP1 accumulation (IP-one Gq) in Cos7 cells transfected with hCRF2α, agonist stimulation. To be noted: 90 min at 37°C, 50 mmol/L LiCl, 1 pmol/L to 10 µmol/L agonist, mean ± SEM, n = 5.
Text: as §1, §2, §5

For orientation: EC50 means the concentration giving half of the maximal effect. A low value points to an effect from little substance. Take `CC[C@H](C)[C@H](NC(=O)[C@H](CCC(N)=O)NC(=O)[C@H](C)NC(=O)[C@H](CCSC)NC(=O)[C@H](CC(C)C)NC(=O)[C@H](Cc1c[nH]cn1)NC(=O)[C@H](C)NC(=O)[C@H](CC(N)=O)NC(=O)[C@H](C)NC(=O)[C@H](C)NC(=O)[C@H](C)NC(=O)[C@H](CCC(N)=O)NC(=O)[C@H](C)NC(=O)[C@H](CCCNC(=N)N)NC(=O)[C@H](CC(C)C)NC(=O)[C@H](CC(N)=O)NC(=O)[C@H](CCCCN)NC(=O)[C@H](C)NC(=O)[C@H](CCCCN)NC(=O)[C@H](C)NC(=O)[C@@H](NC(=O)[C@H](CC(N)=O)NC(=O)[C@H](Cc1ccccc1)NC(=O)[C@H](CC(C)C)NC(=O)[C@H](CC(C)C)NC(=O)[C@H](CC(N)=O)NC(=O)[C@H](CCSC)NC(=O)[C@@H](NC(=O)[C@H](CC(N)=O)NC(=O)[C@@H](NC(=O)[C@@H]1CCCN1C(=O)[C@@H](NC(=O)[C@H](CC(=O)O)NC(=O)[C@H](CC(C)C)NC(=O)[C@H](CO)NC(=O)[C@H](CC(C)C)NC(=O)[C@@H](NC(=O)[C@@H](N)Cc1ccccc1)[C@@H](C)O)C(C)C)[C@@H](C)O)[C@@H](C)CC)[C@@H](C)CC)C(N)=O` [UCN3]: the EC50 was greater than 1000 nM on CRF1 receptor (hCRF1α) [1]; greater than 1000 nM at CRF1 receptor (hCRF1α) [2]; greater than 1000 nM at CRF1 receptor (hCRF1α) [3]; 0.0457 nM on CRF2 receptor (hCRF2α) [4]; 0.661 nM at CRF2 receptor (hCRF2α) [5]; 51.3 nM at CRF2 receptor (hCRF2α) [6].
